The values that follow are results of earlier work, collected in article PMC2131756, “Grb7 SH2 domain structure and interactions with a cyclic peptide inhibitor of cancer cell migration and proliferation” (BMC Structural Biology, 2007).

The subject of the series is breast cancer cells. Details: method as in PMID 17426702. The note with it: co-treatment with cell permeable G7-18NATE peptide, ref [19]; cited from earlier work.

For Herceptin: Trastuzumab (Herceptin), the “change of drug EC50 on co-treatment (in words)” value is given as “significant reduction of the drug EC50 value”.
